Structures are written as SMILES.

The assay deals with ORL-1 receptor (Rattus norvegicus, UniProt P35370). As to the kind of experiment: ORL-1 receptor binding test ([3H]-nociceptin). As to conditions: receptor prepared from cerebral cortex of rat.

Turning to `CNC(=O)Cn1c(=O)n(C2CCN([C@@H]3Cc4cccc5cccc3c45)CC2)c2ccccc21`, the IC50 – broadly, the point on the concentration scale where inhibition reaches its midpoint – (read-out: IC50 value, inhibition of the binding of [3H]-nociceptin, 25° C., 20 minutes) was 4.4 nM. For the setting “read-out: Ki value, inhibition of the binding of [3H]-nociceptin, Ki=IC50/(1+L/Kd)”, the Ki – broadly, the dissociation constant of the complex between target and ligand, obtained from inhibition or displacement – stood at 0.51 nM.

The values are drawn from patent US8003669B2, “Remedy for sleep disturbance” (Mitsubishi Tanabe Pharma Corporation, priority 2002, dated 2011).
